In PubChem BioAssay AID720658 (The Scripps Research Institute Molecular Screening Center, 2013) one finds inhibition data, which are given here for one molecule.

Sequences of proteins named here, by UniProt entry; tags and fusion partners are left off.
UniProt Q8VD66, whole entry: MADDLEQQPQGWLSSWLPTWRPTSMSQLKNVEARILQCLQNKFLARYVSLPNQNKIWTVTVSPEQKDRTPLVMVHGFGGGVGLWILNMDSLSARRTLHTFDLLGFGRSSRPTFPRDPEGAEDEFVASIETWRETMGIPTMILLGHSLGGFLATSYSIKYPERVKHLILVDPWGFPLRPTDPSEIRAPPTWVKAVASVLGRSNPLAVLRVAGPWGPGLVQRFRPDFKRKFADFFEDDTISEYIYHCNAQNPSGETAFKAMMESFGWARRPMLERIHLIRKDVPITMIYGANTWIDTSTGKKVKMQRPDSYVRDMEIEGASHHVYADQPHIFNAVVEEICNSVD

A word on the inhibition: it is the percentage by which the read-out fell short of the control.

The list shows a part of the results, in another mix than the full data. Calls of active or inactive are those of the source.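 How the source made its calls: active means mean inhibition across replicates above the hit cutoff set in the primary screen (cut at about 30% in these data); inactive means the rest.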

In the test the target is (Lyso)-N-acylphosphatidylethanolamine lipase (Mus musculus) (UniProt Q8VD66). In words: mouse ABHD4 hydrolase blockers, triplicate – biochemical, fluorescence polarization, confirmation (AID 720658). Particulars: purified mABHD4, FP-Rh probe fluorescence polarization; at 8.92 µM; active compounds read high. The procedure, abridged:
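System: mouse wild-type ABHD4 enzyme; also added: Rhodamine-tagged fluorophosphonate probe FP-Rh; schedule: 45 min compound pretreatment plus 60 min FP-Rh labeling, 25 °C; detection: fluorescence polarization, excitation 525 nm, emission 598 nm; control set: S159A mutant ABHD4 plus DMSO as 100%, wild-type plus DMSO 0%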
In general terms: Polarisation of emitted light reports the rotation of a fluorescent probe.
As for `CCCCCCCCCCCCCCCC1C[N+](C)(C)CCOP(C)(=O)O1` (stereo unspecified), the inhibition is active: 43.7%.
